{"source": "paper doi:10.1101/2025.08.15.670450", "key": {"[1]": {"target": "Interleukin-7 Receptor Alpha (IL-7RA) (UniProt P16871)", "test": "BLI"}, "[2]": {"target": "Tropomyosin receptor kinase A (TrkA) (UniProt P04629)", "test": "BLI"}, "[3]": {"target": "Epidermal Growth Factor Receptor (EGFR) (UniProt P00533)"}, "[4]": {"target": "Epidermal Growth Factor Receptor (EGFR) (UniProt P00533)", "test": "BLI"}, "[5]": {"target": "SARS-CoV-2 receptor-binding domain (SC2RBD) (SARS-CoV-2) (UniProt P0DTC2)", "test": "BLI"}, "[6]": {"target": "Programmed Death-Ligand 1 (PD-L1) (UniProt Q9NZQ7)"}, "[7]": {"target": "Programmed Death-Ligand 1 (PD-L1) (UniProt Q9NZQ7)", "test": "BLI"}, "[8]": {"target": "Tropomyosin receptor kinase A (TrkA) (UniProt P04629)"}, "[9]": {"target": "SARS-CoV-2 receptor-binding domain (SC2RBD) (SARS-CoV-2) (UniProt P0DTC2)"}, "[10]": {"target": "Interleukin-7 Receptor Alpha (IL-7RA) (UniProt P16871)"}}, "note": "Where two headings read alike, the source gives them in different places.", "data": [{"substance": "IL-7RA_Binder_07", "values": [{"measurement": "Kd", "setting": "[1]", "value": 1.85, "unit": "nM"}]}, {"substance": "TrkA Binder 06", "values": [{"measurement": "Kd", "setting": "[2]", "value": 130, "unit": "nM"}]}, {"substance": "begonia...model2", "values": [{"measurement": "Kd", "setting": "[3]", "value": 260, "unit": "nM"}, {"measurement": "Kd", "setting": "[4]", "value": 140, "unit": "nM"}]}, {"substance": "SC2RBD_Binder_14", "values": [{"measurement": "Kd", "setting": "[5]", "value": 10.3, "unit": "nM"}]}, {"substance": "PD-L1_binder4", "values": [{"measurement": "Kd", "setting": "[6]", "value": 615, "unit": "nM"}, {"measurement": "Kd", "setting": "[7]", "value": "> 1000", "unit": "nM"}]}, {"substance": "GDM_TrkA_130", "values": [{"measurement": "Kd", "setting": "[8]", "value": 60, "unit": "nM"}, {"measurement": "Kd", "setting": "[2]", "value": "> 1000", "unit": "nM"}]}, {"substance": "PD-L1_Binder_13", "values": [{"measurement": "Kd", "setting": "[7]", "value": 1.55, "unit": "nM"}]}, {"substance": "IL-7RA Binder 08", "values": [{"measurement": "Kd", "setting": "[1]", "value": 1.9, "unit": "nM"}]}, {"substance": "GDM_SC2RBD_50", "values": [{"measurement": "Kd", "setting": "[5]", "value": 107, "unit": "nM"}, {"measurement": "Kd", "setting": "[9]", "value": 30, "unit": "nM"}]}, {"substance": "EGFR_Binder_01", "values": [{"measurement": "Kd", "setting": "[4]", "value": 110, "unit": "nM"}]}, {"substance": "GDM_IL7RA_5", "values": [{"measurement": "Kd", "setting": "[10]", "value": 0.49, "unit": "nM"}, {"measurement": "Kd", "setting": "[1]", "value": 0.63, "unit": "nM"}]}, {"substance": "TrkA_Binder_17", "values": [{"measurement": "Kd", "setting": "[2]", "value": 110, "unit": "nM"}]}, {"substance": "PD-L1_binder6", "values": [{"measurement": "Kd", "setting": "[7]", "value": 3400, "unit": "nM"}]}, {"substance": "SC2RBD Binder 04", "values": [{"measurement": "Kd", "setting": "[5]", "value": 10, "unit": "nM"}]}, {"substance": "PD-L1 Binder 03", "values": [{"measurement": "Kd", "setting": "[7]", "value": 21, "unit": "nM"}]}]}
